Consider 2 compounds from patent publication US10112968B2, “Inhibitors of protein methyltransferase DOT1L and methods of use thereof” (Epizyme, Inc., priority 2012, dated 2018).

Chains of the proteins cited; added tags and fusions are not shown. Lines headed by an entry give the natural chain unless they say otherwise; changes in a name come on top.
UniProt Q8TEK3: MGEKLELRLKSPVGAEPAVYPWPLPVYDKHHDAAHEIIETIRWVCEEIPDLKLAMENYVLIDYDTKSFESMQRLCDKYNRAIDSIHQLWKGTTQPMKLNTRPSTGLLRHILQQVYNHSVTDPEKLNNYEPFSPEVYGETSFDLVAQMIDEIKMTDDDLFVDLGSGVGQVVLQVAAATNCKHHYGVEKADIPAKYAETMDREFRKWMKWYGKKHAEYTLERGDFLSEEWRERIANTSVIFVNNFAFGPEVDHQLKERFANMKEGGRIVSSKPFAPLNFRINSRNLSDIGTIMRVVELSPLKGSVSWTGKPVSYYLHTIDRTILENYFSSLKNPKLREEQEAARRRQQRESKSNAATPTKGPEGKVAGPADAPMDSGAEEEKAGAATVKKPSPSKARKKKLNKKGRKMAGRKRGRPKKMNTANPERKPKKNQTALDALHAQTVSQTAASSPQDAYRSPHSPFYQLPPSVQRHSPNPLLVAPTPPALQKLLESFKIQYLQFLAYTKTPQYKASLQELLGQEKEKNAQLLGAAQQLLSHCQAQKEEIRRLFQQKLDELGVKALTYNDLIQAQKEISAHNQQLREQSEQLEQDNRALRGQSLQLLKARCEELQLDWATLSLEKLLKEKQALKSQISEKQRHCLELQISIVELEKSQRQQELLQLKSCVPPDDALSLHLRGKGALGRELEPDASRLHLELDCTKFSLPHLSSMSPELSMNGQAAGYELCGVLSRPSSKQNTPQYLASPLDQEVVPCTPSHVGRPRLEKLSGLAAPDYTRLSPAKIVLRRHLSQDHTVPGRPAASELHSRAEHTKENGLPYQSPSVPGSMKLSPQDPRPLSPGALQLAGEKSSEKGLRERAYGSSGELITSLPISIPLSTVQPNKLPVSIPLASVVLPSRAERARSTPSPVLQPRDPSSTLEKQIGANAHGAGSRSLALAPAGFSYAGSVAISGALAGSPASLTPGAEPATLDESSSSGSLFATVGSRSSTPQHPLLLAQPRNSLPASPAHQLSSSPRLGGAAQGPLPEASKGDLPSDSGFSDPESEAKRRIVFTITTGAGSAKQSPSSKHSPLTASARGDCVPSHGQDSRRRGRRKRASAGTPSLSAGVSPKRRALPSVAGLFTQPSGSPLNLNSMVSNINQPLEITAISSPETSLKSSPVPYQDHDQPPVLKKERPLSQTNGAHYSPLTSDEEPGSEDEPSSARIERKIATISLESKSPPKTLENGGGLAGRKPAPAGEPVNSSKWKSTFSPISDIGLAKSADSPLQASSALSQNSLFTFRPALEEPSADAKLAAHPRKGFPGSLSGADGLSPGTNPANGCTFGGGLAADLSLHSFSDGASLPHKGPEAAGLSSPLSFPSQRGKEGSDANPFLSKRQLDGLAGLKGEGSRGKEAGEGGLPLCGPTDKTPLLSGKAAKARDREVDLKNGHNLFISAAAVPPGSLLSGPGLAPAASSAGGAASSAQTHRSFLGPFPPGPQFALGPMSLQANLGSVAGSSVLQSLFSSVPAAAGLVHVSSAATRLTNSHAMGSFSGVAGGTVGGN

Each structure is given as a SMILES string.

As a reminder, the IC50 is the concentration needed to halve the response being measured. The koff is the rate constant with which the complex falls apart. Low readings indicate slow dissociation, high ones fast dissociation.

The target in assay [1] is T1, DOT1L (Homo sapiens (Human), UniProt Q8TEK3). Briefly: DOT1L enzymatic activity radiometric assay (methyl transfer from SAM to chicken erythrocyte nucleosomes). Conditions: read-out: DOT1L IC50.
Assay [2] has as its target T1, DOT1L. The assay is described as follows: Ligand association and dissociation rate constants by surface plasmon resonance (SPR). In kind it is binding. The following applies: 25° C. (In general: Surface plasmon resonance follows binding to a sensor surface in real time, without labels.)

In the case of `CN(C[C@H]1C[C@@H](n2ccc3c(N)ncnc32)[C@H](O)[C@@H]1O)[C@H]1C[C@@H](CCc2nc3cc(C(C)(C)C)ccc3[nH]2)C1` [Compound A69, (1R,2S,3R,5R)-3-(4-amino-7H-pyrrolo[2,3-d]pyrimidin-7-yl)-5-((((1r,3S)-3-(2-(5-(tert-butyl)-1H-benzo[d]imidazol-2-yl)ethyl)cyclobutyl)(methyl)amino)methyl)cyclopentane-1,2-diol], on DOT1L [1], the IC50 is 2.51 nM. `CN(CCNC(=O)Nc1ccc(C(C)(C)C)cc1)C[C@H]1O[C@@H](n2cnc3c(N)ncnc32)[C@H](O)[C@@H]1O` [Compound C94] registered an off-rate constant (koff) at DOT1L [2] of 0.2 ± 0.09 s⁻¹.
